Experimental data published in article PMC4863456 (Journal of Chemical Information and Modeling, 2015).

Legend:
[1] = tested on: CB1 receptor F3.36A mutation
[2] = tested on: CB1 receptor F3.36L mutation; conditions: cited from earlier work
[3] = tested on: CB1 receptor F3.36A mutation; conditions: cited from earlier work

- decrease in binding affinity upon mutation, as energy [1]: 1.78 kcal/mol
Structure (SMILES): Cc1c(C(=O)NN2CCCCC2)nn(-c2ccc(Cl)cc2Cl)c1-c1ccc(Cl)cc1 [rimonabant, N-(Piperidin-1-yl)-5-(4-Chlorophenyl)-1-(2,4-Dichlorophenyl)-4-Methyl-1H -Pyrazole-3-Carboxamide]
- decrease in binding affinity upon mutation [2]: 2 fold
- decrease in binding affinity upon mutation [3]: 20 fold
